The target in the assay is Human IL10R1 (human) (UniProt Q13651). Nature of the assay: ELISA, human IL10R1 coated at 5 ug/mL, detection with goat anti-hIgG-HRP.

Erb-(IL10)2 (Fc fusion) displayed an EC50 of 2.94 ng/mL.
